System: AAD12 Soybean (GLXMA)
Test: Field trials, crop tolerance (% visual necrosis)
Assay type: in vivo, Glycine max L. (soybean)
Conditions: 2 DAA, 822 g ae/ha alone
Protocol: Field trials were conducted under agricultural field conditions in multiple states in the United States, including but not limited to Arkansas, Iowa, Illinois, Indiana, Kansas, Minnesota, Mississippi, Missouri, New York, Tennessee and Wisconsin. Trials were established as RCB (randomized complete block) design, with 3-4 replicates per treatment, and plot sizes varying from 5-10 feet (ft) wide by 12-30 ft long. Treatments were applied with small plot backpack sprayers, using pressurized carbon dioxide (CO2) as propellant. Pressure varied from 17-52 pounds per square inch (psi), with spray tips typically of a Flat Fan type applying water diluent at 15 gallons per acre (GPA). Boom sizes varied from 5-11 ft in width. Treatments were applied to soybean, cotton, corn or fallow crop land. Weed sizes varied, but all treatments were applied as post-emergence treatments to weeds from 2 leaf to 2 tiller growth stages varying from 3 to 17 inches in height. The weed spectrum included, but was not limited to, Amaranthus palmeri S. Wats. (Palmer amaranth, AMAPA), Ambrosia trifida L. (giant ragweed, AMBTR), Conyza canadensis (L.) Cronq. (horseweed, ERICA) and Salsola tragus L. (Russian thistle, SASKR). […]
However, the experiments described herein were performed such that active ingredients A and B were combined and only the efficacy of the combination was determined. […]

## CP(=O)(O)CCC(N)C(=O)O (stereo not shown) [Glufosinate-Ammonium, ammonium (3-amino-3-carboxypropyl)(methyl)phosphinate]
  Mean % Visual Necrosis: 21.3%

— patent US20150173370A1, “S[…] CONTROL FROM COMBINATIONS OF 2,4-D-CHOLINE, GLYPHOSATE, AND GLUFOSINATE” (Dow AgroSciences LLC, priority 2013, published 2015)
